Measured values reported in patent publication US7973079B2, “Methods and compounds for treating retinol-related diseases” (Revision Therapeutics, Inc., priority 2007, dated 2011).

Tested on: cytochrome P450 isozymes
Test: Cytochrome P450 inhibition profile (panel of six isozymes)
Format: in vitro ADME
Conditions: compound at 2 μM, FIG. 8
Procedure: FIG. 8. Cytochrome P450 inhibition profile for test compounds and fenretinide (HPR). A panel of six cytochrome P450 isozymes were screened to explore potential toxicity associated with the test compounds (test compound 2 having the chemical name 3-((2-tert-butyl-4-chlorophenoxy)methyl)cyclohexanecarboxylic acid and test compound 3 having the chemical name 3-((2-tert-butyl-4-chlorophenoxy)methyl)cyclopentanecarboxylic acid) and HPR (present at 2 μM in the assays).

SMILES: CC(C)(C)c1cc(Cl)ccc1OCC1CCCC(C(=O)O)C1 (stereo not shown) [3-((2-tert-butyl-4-chlorophenoxy)methyl)cyclohexanecarboxylic acid]
- inhibition of the cytochrome P450 isozymes: very little inhibition
